Results as given in patent US12377056B2, “Cladribine regimen for treating multiple sclerosis” (priority 2006, dated 2025).

Legend:
[1] = test system: Relapsing-Remitting Multiple Sclerosis (RRMS); conditions: given subcutaneously three times per week; cited from earlier work
[2] = test system: Vesicular Stomatitis virus; assay type: cell-based

Rebif®: purified 166 amino acid glycoprotein, recombinant human interferon beta-1a produced in Chinese Hamster Ovary cells
efficacy in RRMS [1]: efficacious
antiviral activity contained in 44 mcg ([2]; 44 mcg, same bioassay): approximately 12 MIU
specific activity (antiviral activity) ([2]; reference standard calibrated against the WHO natural interferon beta standard, WISH cells, Vesicular Stomatitis virus): approximately 270 million international units (MIU) of antiviral activity per mg of interferon beta-1a
